# Laboratory results as given in patent publication US8669260B2, “Ketoconazole-derivative antagonist of human pregnane X receptor and uses thereof” (priority 2008, dated 2014).
# System: SKOV-3 cells
# Details: MTT; 48-96 hr exposure (T1317: 48 hours, normalized to GSK1385)
substance,measurement,value
hyperforin,SKOV-3 cell survival (in words),significant increase in cell survival
